The list shows a part of the results, in another mix than the full data. Records with an inconclusive call do not appear. The source made the active and inactive calls. Unless noted, calls come from the whole dose curve; as a rule, active = well fitted curve in the direction sought with a large enough effect; inconclusive = small, poorly fitted or top-dose-only effect, or another doubt; inactive = no such curve, though single readings can be large; an effect the other way counts as inactive or inconclusive.
Experiments:
[1] = biological target: Protein phosphatase 1D (Homo sapiens) (UniProt O15297); test: Rhodamine-PBP qHTS Assay for Modulators of WT P53-Induced Phosphatase 1 (WIP1) (AID 1347425); details: recombinant WIP1, Rhodamine-PBP phosphate fluorescence, real-time; at 57.5 µM (top of the series) unless noted; note: % of control where 0% means no effect
In short: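 Steps: enzyme with Rh-PBP sensor and compounds, room-temperature incubation of 1 hr, baseline read, addition of VEPPL-pS-QETFS (10 uM final), kinetic fluorescence reads at 525/598 nm. Activity equals final minus baseline signal.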

Protein sequences, listed by entry. Tags and fused reporters are not part of them. Lines headed by an entry give the natural chain unless they say otherwise; changes in a name come on top.
UniProt O15297: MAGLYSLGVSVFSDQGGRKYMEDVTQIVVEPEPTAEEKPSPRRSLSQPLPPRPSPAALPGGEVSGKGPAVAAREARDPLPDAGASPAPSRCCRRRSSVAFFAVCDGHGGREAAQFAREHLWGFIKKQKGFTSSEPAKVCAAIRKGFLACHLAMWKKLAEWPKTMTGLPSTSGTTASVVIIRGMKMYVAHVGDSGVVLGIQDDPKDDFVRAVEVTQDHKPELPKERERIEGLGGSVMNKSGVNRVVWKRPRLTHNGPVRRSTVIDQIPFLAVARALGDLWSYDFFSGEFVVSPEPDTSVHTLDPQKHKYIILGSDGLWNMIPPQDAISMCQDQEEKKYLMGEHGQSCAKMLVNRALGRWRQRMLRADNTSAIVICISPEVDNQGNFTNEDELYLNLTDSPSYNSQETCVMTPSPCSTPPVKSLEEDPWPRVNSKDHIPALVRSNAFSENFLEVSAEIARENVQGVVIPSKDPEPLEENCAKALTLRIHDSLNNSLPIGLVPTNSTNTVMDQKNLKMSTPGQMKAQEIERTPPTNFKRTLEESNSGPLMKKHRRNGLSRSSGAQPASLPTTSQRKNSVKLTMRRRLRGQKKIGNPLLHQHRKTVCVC
UniProt Q99828: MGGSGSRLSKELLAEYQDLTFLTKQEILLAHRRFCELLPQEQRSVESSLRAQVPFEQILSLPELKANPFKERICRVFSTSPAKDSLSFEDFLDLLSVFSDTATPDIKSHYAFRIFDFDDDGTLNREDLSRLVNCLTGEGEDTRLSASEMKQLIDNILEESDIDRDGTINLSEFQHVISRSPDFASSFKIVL
UniProt P10635, whole entry, looked up: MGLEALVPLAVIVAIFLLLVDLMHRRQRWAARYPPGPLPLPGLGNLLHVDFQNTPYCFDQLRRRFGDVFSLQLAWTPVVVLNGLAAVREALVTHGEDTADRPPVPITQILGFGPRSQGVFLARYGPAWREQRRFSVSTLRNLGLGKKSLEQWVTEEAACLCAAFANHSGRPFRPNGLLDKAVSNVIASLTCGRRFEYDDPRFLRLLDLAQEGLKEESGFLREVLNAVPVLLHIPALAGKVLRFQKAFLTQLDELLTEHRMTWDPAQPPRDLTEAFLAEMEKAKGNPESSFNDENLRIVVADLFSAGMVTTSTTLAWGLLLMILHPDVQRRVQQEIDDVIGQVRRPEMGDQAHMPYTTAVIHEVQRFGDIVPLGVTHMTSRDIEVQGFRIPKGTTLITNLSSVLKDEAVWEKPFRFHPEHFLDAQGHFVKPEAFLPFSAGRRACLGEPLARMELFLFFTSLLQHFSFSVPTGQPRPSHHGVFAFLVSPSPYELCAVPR
UniProt P11712, whole entry, looked up: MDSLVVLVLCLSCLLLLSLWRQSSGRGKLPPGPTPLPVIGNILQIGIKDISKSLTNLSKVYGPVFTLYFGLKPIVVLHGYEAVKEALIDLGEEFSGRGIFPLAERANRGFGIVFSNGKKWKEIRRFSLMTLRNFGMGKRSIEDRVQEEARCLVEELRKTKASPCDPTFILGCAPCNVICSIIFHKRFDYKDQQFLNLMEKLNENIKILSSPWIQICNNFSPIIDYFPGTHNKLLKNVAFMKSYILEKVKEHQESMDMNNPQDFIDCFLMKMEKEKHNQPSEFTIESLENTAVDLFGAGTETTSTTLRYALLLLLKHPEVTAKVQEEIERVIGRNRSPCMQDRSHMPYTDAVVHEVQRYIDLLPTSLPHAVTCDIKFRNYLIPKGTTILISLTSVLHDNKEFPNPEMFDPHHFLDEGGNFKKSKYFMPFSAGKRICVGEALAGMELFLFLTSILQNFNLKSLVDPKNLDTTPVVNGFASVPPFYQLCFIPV

[2] = biological target: Calcium and integrin-binding protein 1 (Homo sapiens) (UniProt Q99828); test: Primary qHTS for Identification of Calcium Integrin Binding Protein 1 (CIB1) Competitor (AID 1508620); details: CIB1-GST / FITC-alphaIIb peptide fluorescence polarization; at 114 µM (top of the series) unless noted;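 note: GST tagged CIB1 binding a fluorescein labelled alphaIIb integrin peptide tracer; top concentration of the series differs between compounds; % is set by controls: 0 for no effect and ±100 for the full control effect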
[3] = Primary qHTS for small molecule stabilizers of the endoplasmic reticulum resident proteome: Secreted ER Calcium Modulated Protein (SERCaMP) assay (AID 1508630); details: SH-SY5Y GLuc-SERCaMP (Gaussia luciferase released on ER calcium loss) secretion, thapsigargin, luminescence; at 38.4 µM (top of the series); note: % is set by controls: 0 for no effect and ±100 for the full control effect
In short: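 The SH-SY5Y reporter protocol was run at 3 concentrations up to 38.3 uM (primary) or 11 concentrations (follow-up): 16 h compound, 100 nM thapsigargin for 4 h, then extracellular luciferase luminescence.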

[4] = A High-Content qHTS Against Drug Library for the Identification of Small Molecules that Inhibit DYT1 Early Onset Primary Dystonia-Associated Cell Pathology (AID 1645839; calls by dose curve)
In short: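 High-content imaging quantified EGFP-TorsinA mislocalization in HEK293-derived cells inducibly expressing DYT1 mutant torsinA, after 48 h exposure to compound given together with tetracycline induction. Cell count served as a toxicity channel alongside %pathology.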

[5] = biological target: Cytochrome P450 2D6 (Homo sapiens) (UniProt P10635); test: Cytochrome P450 family 2 subfamily D member 6 (CYP2D6) small molecule antagonists: luciferase biochemical (cell-free) qHTS assay (AID 1645840; active = well fitted curve in the direction sought with a large enough effect in the repeat runs; an effect the other way counts as inactive or inconclusive; note: potency is the fitted concentration of half-maximal effect; nearly all actives have a fitted effect of over 55% in size)
In short: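 P450-Glo CYP2D6 system: proluciferin substrate converted by enzyme to luciferin, read by luminescence proportional to activity. Enzyme-substrate mix with compound 10 min at room temperature, then NADPH regeneration 1 h before detection reagent.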

[6] = biological target: Cytochrome P450 2C9 (Homo sapiens) (UniProt P11712); test: Cytochrome P450 family 2 subfamily C member 9 (CYP2C9) small molecule antagonists: luciferase qHTS assay (AID 1645842; active = well fitted curve in the direction sought with a large enough effect in the repeat runs; an effect the other way counts as inactive or inconclusive; note: % is set by controls: 0 for no effect and ±100 for the full control effect; nearly all actives have a fitted effect of over 55% in size); details: P450-Glo CYP2C9 enzyme assay, luciferin luminescence; at 57.4 µM (top of the series) unless noted
In short: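 P450-Glo CYP2C9 system: proluciferin substrate with enzyme in mix containing 0.4% BSA, 10 min at room temperature, then NADPH regeneration solution added and incubated 1 h at 37C. Detection reagent stopped reaction; luminescence read after 20 min as RLU.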

[7] = test system: CRL-7250; test: Cytotoxic Profiling of Annotated Libraries Using Quantitative High-Throughput Screening (AID 1296008); details: Five cell lines viability, CellTiter-Glo ATP luminescence, 48-72 h; active compounds read low; note: nearly all actives have a fitted effect of over 60% in size; for max response: % is set by controls: 0 for no effect and ±100 for the full control effect
[8] = test system: HEK293; test: as above; details: Five cell lines viability, CellTiter-Glo ATP luminescence, 48-72 h; max response: active compounds read low
[9] = test system: HaCat; test: as above; details: Five cell lines viability, CellTiter-Glo ATP luminescence, 48-72 h; active compounds read low
[10] = test system: KB-3-1; test: as above; details: Five cell lines viability, CellTiter-Glo ATP luminescence, 48-72 h, active compounds read low
[11] = test system: NIH3T3; test: as above; details: Five cell lines viability, CellTiter-Glo ATP luminescence, 48-72 h; active compounds read low
[12] = test system: CRL-7250; test: qHTS assay to identify novel small-molecules to repurpose for Merkel cell carcinoma treatment (AID 1296009); details: MCC and control cell lines, CellTiter-Glo viability, 72 h; at 44.8 µM (top of the series) unless noted; note: nearly all actives have a fitted effect of over 60% in size; for activity change, negative = cytotoxicity: % is set by controls: 0 for no effect and ±100 for the full control effect
[13] = test system: HACAT; test: as above; details: MCC and control cell lines, CellTiter-Glo viability, 72 h; at 44.8 µM (top of the series)
[14] = test system: HEK293T; test: as above; details: MCC and control cell lines, CellTiter-Glo viability, 72 h; at 44.8 µM (top of the series)
[15] = test system: MCC-13; test: as above; details: MCC and control cell lines, CellTiter-Glo viability, 72 h; at 46 µM (top of the series) unless noted
[16] = test system: MCC-26; test: as above; details: MCC and control cell lines, CellTiter-Glo viability, 72 h; at 46 µM (top of the series) unless noted
[17] = test system: MKL-1; test: as above; details: MCC and control cell lines, CellTiter-Glo viability, 72 h; at 46 µM (top of the series) unless noted
[18] = test system: MKL-2; test: as above; details: MCC and control cell lines, CellTiter-Glo viability, 72 h; at 46 µM (top of the series) unless noted
[19] = test system: UISO; test: as above; details: MCC and control cell lines, CellTiter-Glo viability, 72 h; at 46 µM (top of the series)
[20] = test system: C33A; test: Primary qHTS to identify gynecologic anti-cancer compounds using libraries of approved drugs and bioactive compounds (AID 1345084); details: Gynecologic cancer cell panel viability, ATPlite luminescence, 48 h; at 57.5 µM (top of the series) unless noted; note: % is set by controls: 0 for no effect and ±100 for the full control effect; nearly all actives have a fitted effect of over 55% in size
In short: (§1)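 Measured: luminescence after ATPlite addition (15 min, RT). Exposure: 48 h, 37 C, 5% CO2.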

[21] = test system: CAOV3; test: as above; details: Gynecologic cancer cell panel viability, ATPlite luminescence, 48 h; at 57.5 µM (top of the series) unless noted
In short: as §1

[22] = test system: CASKI; test: as above; details: Gynecologic cancer cell panel viability, ATPlite luminescence, 48 h; at 57.5 µM (top of the series) unless noted
In short: as §1

[23] = test system: Es-2; test: as above; details: Gynecologic cancer cell panel viability, ATPlite luminescence, 48 h; at 57.5 µM (top of the series) unless noted
In short: as §1

[24] = test system: HeLa; test: as above; details: Gynecologic cancer cell panel viability, ATPlite luminescence, 48 h; at 57.5 µM (top of the series) unless noted
In short: as §1

[25] = test system: Hek293T; test: as above; details: Gynecologic cancer cell panel viability, ATPlite luminescence, 48 h, control line for the selectivity index; at 57.5 µM (top of the series) unless noted
In short: as §1

[26] = test system: JEG-3; test: as above; details: Gynecologic cancer cell panel viability, ATPlite luminescence, 48 h; at 57.5 µM (top of the series) unless noted
In short: as §1

[27] = test system: OV90; test: as above; details: Gynecologic cancer cell panel viability, ATPlite luminescence, 48 h; at 57.5 µM (top of the series) unless noted
In short: as §1

[28] = test system: PA-1; test: as above; details: Gynecologic cancer cell panel viability, ATPlite luminescence, 48 h; at 57.5 µM (top of the series) unless noted
In short: as §1

[29] = test system: SKOV3; test: as above; details: Gynecologic cancer cell panel viability, ATPlite luminescence, 48 h; at 57.5 µM (top of the series) unless noted
In short: as §1

[30] = test system: Tov-21-G; test: as above; details: Gynecologic cancer cell panel viability, ATPlite luminescence, 48 h; at 57.5 µM (top of the series) unless noted
In short: as §1

[31] = test system: Tov112D; test: as above; details: Gynecologic cancer cell panel viability, ATPlite luminescence, 48 h; at 57.5 µM (top of the series) unless noted
In short: as §1

CN(C(=O)Cc1ccccc1)[C@H]1CC[C@@]2(CCCO2)C[C@@H]1N1CCCC1
activity change, negative = inhibition [1]: inactive: 22.1% | activity change, negative = inhibition [2]: inactive: -11.7% | activity change, negative = inhibition [3]: inactive: -16% | Potency [4]: inactive | Potency [5]: active: 7.76 µM | activity change, negative = inhibition [6]: inactive: -3.85% | outcome [7]: inactive | outcome [8]: inactive | outcome [9]: inactive | max response [10]: inactive: 1.21% | max response [11]: inactive: -5.17% | outcome [12]: inactive | outcome [13]: inactive | outcome [14]: inactive | activity change, negative = cytotoxicity [15]: inactive: 6.76% | activity change, negative = cytotoxicity [16]: inactive: 7.08% | activity change, negative = cytotoxicity [17]: inactive: 4.11% | activity change, negative = cytotoxicity [18]: inactive: 2.13% | activity change, negative = cytotoxicity [19]: inactive: 21.2% | activity change, negative = cytotoxicity [20]: inactive: -4.64% | activity change, negative = cytotoxicity [21]: inactive: 9.65% | activity change, negative = cytotoxicity [22]: inactive: -4% | activity change, negative = cytotoxicity [23]: inactive: 10.4% | activity change, negative = cytotoxicity [24]: inactive: -2.63% | activity change, negative = cytotoxicity [25]: inactive: 21.1% | activity change, negative = cytotoxicity [26]: inactive: -2.83% | activity change, negative = cytotoxicity [27]: inactive: 20.3% | activity change, negative = cytotoxicity [28]: inactive: 28.7% | activity change, negative = cytotoxicity [29]: inactive: 1.77% | activity change, negative = cytotoxicity [30]: inactive: 13.3% | activity change, negative = cytotoxicity [31]: inactive: 0.729%
